Data published in PubChem BioAssay (Tox21).
The entries are a selection whose mix differs from that of the whole data set. Records with an inconclusive call do not appear. Active and inactive are the calls of the source. Unless noted, calls follow the shape of the full dose curve.

Sequences of proteins named here, by UniProt entry; tags and fusion partners are left off.
UniProt P30968, whole entry: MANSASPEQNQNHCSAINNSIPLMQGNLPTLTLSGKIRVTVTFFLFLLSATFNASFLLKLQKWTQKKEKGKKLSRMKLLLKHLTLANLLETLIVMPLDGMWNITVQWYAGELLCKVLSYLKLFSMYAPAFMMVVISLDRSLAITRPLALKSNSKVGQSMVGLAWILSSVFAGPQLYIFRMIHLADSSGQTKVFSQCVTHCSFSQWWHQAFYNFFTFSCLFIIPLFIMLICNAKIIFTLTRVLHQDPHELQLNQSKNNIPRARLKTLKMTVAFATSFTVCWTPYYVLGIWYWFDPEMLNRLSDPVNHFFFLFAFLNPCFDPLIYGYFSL
UniProt Q969F8, whole entry: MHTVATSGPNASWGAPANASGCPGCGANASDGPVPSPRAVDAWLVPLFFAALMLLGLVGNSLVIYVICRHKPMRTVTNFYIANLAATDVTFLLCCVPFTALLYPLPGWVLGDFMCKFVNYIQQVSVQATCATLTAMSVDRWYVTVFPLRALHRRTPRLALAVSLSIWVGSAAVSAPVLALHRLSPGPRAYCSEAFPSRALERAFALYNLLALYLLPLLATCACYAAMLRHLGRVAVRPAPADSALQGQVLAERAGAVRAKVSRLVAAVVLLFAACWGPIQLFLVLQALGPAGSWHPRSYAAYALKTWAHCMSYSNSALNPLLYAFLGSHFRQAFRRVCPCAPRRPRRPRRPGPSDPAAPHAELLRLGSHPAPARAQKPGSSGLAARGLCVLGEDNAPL
UniProt P28223, whole entry: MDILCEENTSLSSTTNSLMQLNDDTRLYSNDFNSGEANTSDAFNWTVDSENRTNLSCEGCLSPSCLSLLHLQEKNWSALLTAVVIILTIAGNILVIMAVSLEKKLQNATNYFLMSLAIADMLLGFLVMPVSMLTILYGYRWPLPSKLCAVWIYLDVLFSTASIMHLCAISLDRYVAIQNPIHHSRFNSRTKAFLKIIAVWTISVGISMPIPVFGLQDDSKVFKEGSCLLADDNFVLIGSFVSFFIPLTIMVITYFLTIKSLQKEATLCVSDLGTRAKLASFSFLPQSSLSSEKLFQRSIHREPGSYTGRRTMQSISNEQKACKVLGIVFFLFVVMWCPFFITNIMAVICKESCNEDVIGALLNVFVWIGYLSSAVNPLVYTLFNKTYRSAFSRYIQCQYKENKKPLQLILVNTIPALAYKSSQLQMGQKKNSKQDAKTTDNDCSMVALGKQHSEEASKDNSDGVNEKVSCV
UniProt P11229, whole entry: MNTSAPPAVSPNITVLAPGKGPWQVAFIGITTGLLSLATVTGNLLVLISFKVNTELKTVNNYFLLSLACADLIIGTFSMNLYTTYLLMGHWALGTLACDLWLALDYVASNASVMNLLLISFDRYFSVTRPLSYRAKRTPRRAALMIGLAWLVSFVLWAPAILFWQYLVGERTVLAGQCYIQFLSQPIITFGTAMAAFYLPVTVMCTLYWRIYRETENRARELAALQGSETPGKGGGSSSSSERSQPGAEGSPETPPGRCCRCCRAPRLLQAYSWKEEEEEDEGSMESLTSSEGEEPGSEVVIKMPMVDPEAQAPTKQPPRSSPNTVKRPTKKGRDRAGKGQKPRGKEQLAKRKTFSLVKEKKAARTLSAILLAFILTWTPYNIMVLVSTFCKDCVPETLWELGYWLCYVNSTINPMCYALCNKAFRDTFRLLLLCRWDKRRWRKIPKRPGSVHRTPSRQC
UniProt P07550, whole entry: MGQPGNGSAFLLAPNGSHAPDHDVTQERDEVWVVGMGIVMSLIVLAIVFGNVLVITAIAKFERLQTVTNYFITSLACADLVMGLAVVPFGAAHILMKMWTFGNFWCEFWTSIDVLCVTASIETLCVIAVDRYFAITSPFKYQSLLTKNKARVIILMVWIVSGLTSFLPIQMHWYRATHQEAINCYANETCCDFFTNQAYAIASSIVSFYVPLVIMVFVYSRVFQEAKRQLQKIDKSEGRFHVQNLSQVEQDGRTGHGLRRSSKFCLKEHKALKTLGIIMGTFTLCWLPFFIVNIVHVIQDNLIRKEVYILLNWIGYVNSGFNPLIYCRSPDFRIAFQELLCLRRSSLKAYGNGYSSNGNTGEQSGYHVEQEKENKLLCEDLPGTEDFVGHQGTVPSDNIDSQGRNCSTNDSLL
UniProt P14416, whole entry: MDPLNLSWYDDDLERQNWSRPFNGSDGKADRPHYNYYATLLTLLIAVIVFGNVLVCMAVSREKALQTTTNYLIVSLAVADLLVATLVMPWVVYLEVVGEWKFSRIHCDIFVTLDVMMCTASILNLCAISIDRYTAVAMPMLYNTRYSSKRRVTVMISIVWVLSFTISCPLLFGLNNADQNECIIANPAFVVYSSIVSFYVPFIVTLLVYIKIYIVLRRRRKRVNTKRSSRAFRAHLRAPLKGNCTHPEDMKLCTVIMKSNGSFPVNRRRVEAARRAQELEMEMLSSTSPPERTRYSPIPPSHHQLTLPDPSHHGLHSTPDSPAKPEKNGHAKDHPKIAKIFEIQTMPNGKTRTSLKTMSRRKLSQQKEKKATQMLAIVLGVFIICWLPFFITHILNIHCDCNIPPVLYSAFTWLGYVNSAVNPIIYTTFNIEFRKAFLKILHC

Tests used:
[1] = Nuclear factor erythroid 2-related factor 2/antioxidant responsive element (Nrf2/ARE) small molecule agonists: qHTS cell viability counter screen in human keratinocytes (AID 1919968; active = well fitted curve in the direction sought with a large enough effect in the repeat runs; an effect the other way counts as inactive or inconclusive; also: nearly all actives have a fitted effect of over 55% in size); settings: KeratinoSens HaCaT ARE cells viability, CellTiter-Fluor, 24 h; at 92.4 µM (top of the series) unless noted
Summary of the method: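 In human HaCaT keratinocytes stably expressing an ARE-driven luciferase, compound exposure lasted 23 h at 37 C under 5% CO2. Viable cells are quantified with a protease-based fluorogenic reagent (CellTiter-Fluor) read 1 h after addition.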

[2] = biological target: Gonadotropin-releasing hormone receptor (Homo sapiens) (UniProt P30968); assay: Human gonadotropin-releasing hormone receptor (GnRHR) small molecule agonists, calcium flux assay in GnRHR-HEK293 cells (AID 1920063); settings: calcium flux fluorescence, agonist mode, stronger effect = higher value; at 57.6 µM (top of the series) unless noted; also: nearly all actives have a fitted effect of over 35% in size
Summary of the method: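 Intracellular calcium rise is the read-out: engineered human GnRHR HEK293 cells, dye-loaded, are exposed to DMSO-dissolved compounds and fluorescence at Ex/Em 480/540 is tracked for 3 min.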

[3] = biological target: KiSS-1 receptor (Homo sapiens) (UniProt Q969F8); assay: Human kisspeptin (KISS1R) small molecule agonists, calcium flux assay in KISS1R-HEK293 cells (AID 1920064; active = well fitted curve in the direction sought with a large enough effect in the repeat runs; an effect the other way counts as inactive or inconclusive); settings: KISS1R-HEK293, calcium flux fluorescence, agonist; at 76.8 µM (top of the series) unless noted
Summary of the method: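 Concentration-response testing used 15 concentrations in triplicate on human KISS1R-expressing HEK293 cells. Calcium-dependent fluorescence (Ex/Em 480/540) was followed kinetically for 3 min after compound transfer.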

[4] = G protein-coupled receptor (GPCR) small molecule agonists, calcium flux assay: HEK293 wild type cell line counter screen (AID 1920065); settings: HEK293 WT calcium flux, fluorescence, agonist mode; at 57.6 µM (top of the series) unless noted
Summary of the method: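 Fluorescence intensity signals activation. After overnight (18 h) culture and a 1 h calcium dye load at 37 C, compounds are added by pin tool and the plate read at 480/540 nm for 3 min in 1 s steps.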

[5] = p53 small molecule agonists, cell-based qHTS assay with rat liver microsomes (AID 1963578); settings: HCT-116 p53RE-bla, beta-lactamase ratio, 16 h; at 66 µM (top of the series) unless noted
Summary of the method: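 p53RE-bla cells were exposed to compounds together with rat liver microsomes (0.5 mg/mL final) and NADPH (0.5 mg/mL final) for 16 h at 37 C, then read by LiveBLAzer beta-lactamase fluorescence after 2 h at room temperature.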

[6] = p53 small molecule agonists, cell-based qHTS assay with human liver microsomes: qHTS cell viability counter screen (AID 1963579); settings: p53RE-bla HCT-116 viability, ATP luminescence, 16 h, HLM; at 66 µM (top of the series) unless noted; also: nearly all actives have a fitted effect of over 45% in size
Summary of the method: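 p53RE-bla cells (4,000/well) were pre-incubated 5 h at 37 C, then given compounds in DMSO plus human liver microsomes (0.5 mg/mL final) and NADPH (0.5 mg/mL final) for 16 h at 37 C. Viability was read by CellTiter-Glo luminescence.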

[7] = p53 small molecule agonists, cell-based qHTS assay with rat liver microsomes: qHTS cell viability counter screen (AID 1963580); settings: p53RE-bla HCT-116 + rat microsomes, ATP viability, 16 h; at 66 µM (top of the series) unless noted; also: nearly all actives have a fitted effect of over 45% in size
Summary of the method: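 Counter screen for cytotoxicity under metabolic activation: rat liver microsomes and NADPH, 0.5 mg/mL final each, added with compounds to p53RE-bla HCT-116 cells; 16 h at 37 C, then ATP luminescence read.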

[8] = p53 small molecule agonists, cell-based qHTS assay: qHTS cell viability counter screen (AID 1963581); settings: p53RE-bla HCT-116 viability, ATP luminescence, 16 h; at 66 µM (top of the series) unless noted; also: nearly all actives have a fitted effect of over 45% in size
Summary of the method: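 Luminescence from CellTiter-Glo, reflecting ATP content, serves as the cytotoxicity measure; it is taken after the 2 h reporter substrate step in HCT-116 p53RE-bla cells dosed for 16 h at 37 C.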

[9] = p53 small molecule agonists, cell-based qHTS assay (AID 1963582; active = well fitted activation curve with a large enough effect in the signal ratio in the repeat runs, not every such curve was filed as active; the % refers to the signal ratio); settings: HCT-116 p53RE-bla reporter, beta-lactamase FRET ratio, 16 h; at 66 µM (top of the series) unless noted
Summary of the method: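 After plating, p53RE-bla cells sat 5 h in the incubator; compounds or DMSO vehicle were pinned in; a 16 h incubation at 37 C followed; FRET substrate was added and, 2 h later at RT, fluorescence was measured.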

[10] = biological target: 5-hydroxytryptamine receptor 2A (Homo sapiens) (UniProt P28223); assay: 5-hydroxytryptamine receptor 2A (HTR2A) small molecule agonists, cell-based qHTS assay (AID 1963587); settings: HTR2A-CHO cells, calcium flux fluorescence, agonist mode; at 76.8 µM (top of the series) unless noted; also: nearly all actives have a fitted effect of over 30% in size
Summary of the method: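 HTR2A-CHO cells, plated 18 h at 37 C/5% CO2, dye-loaded 1 h at 37 C; compounds in DMSO added by pin tool (agonist mode). Intracellular calcium flux read as kinetic fluorescence on FDSS over 2 min at 1 s intervals.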

[11] = biological target: Muscarinic acetylcholine receptor M1 (Homo sapiens) (UniProt P11229); assay: Cholinergic receptor muscarinic 1 (CHRM1) small molecule antagonists, cell-based qHTS assay (AID 1963588); settings: CHRM1-CHO antagonist mode, calcium flux fluorescence; at 61.5 µM (top of the series) unless noted; also: nearly all actives have a fitted effect of over 40% in size
Summary of the method: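 Compounds were tested at 15 concentrations in three independent runs. Dye-loaded CHRM1-CHO cells were exposed 5 min at room temperature before stimulation by acetylcholine added at 50nM. Intracellular calcium was read kinetically on FDSS for 3 min.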

[12] = biological target: Muscarinic acetylcholine receptor M1 (Homo sapiens) (UniProt P11229); assay: Cholinergic receptor muscarinic 1 (CHRM1) small molecule agonists, cell-based qHTS assay (AID 1963589); settings: CHRM1-CHO cells, agonist mode, calcium flux fluorescence; at 76.8 µM (top of the series) unless noted; also: nearly all actives have a fitted effect of over 35% in size
Summary of the method: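 Fluorescent calcium dye reports M1 activation in stably transfected CHO cells. Compounds, 15 concentrations, added after 1 h dye loading at 37 C; kinetic reading at 1 sec intervals.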

[13] = cAMP Responsive Elements (CRE) small molecule agonists, cell-based qHTS assay (AID 1963590); settings: CRE-bla HEK293T, beta-lactamase FRET ratio, 3 h; at 92.4 µM (top of the series) unless noted
Summary of the method: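 Compound exposure lasted 3 h at 37 C/5% CO2 in CRE-bla HEK 293T cells grown in assay medium with 10% dialyzed FBS and 25 mM HEPES. Reporter signal came from LiveBLAzer B/G FRET substrate, 2 h, room temperature.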

[14] = cAMP Responsive Elements (CRE) small molecule antagonists, cell-based qHTS assay (AID 1963591; active = well fitted inhibition curve with a large enough effect in the signal ratio in the repeat runs, not every such curve was filed as active; the % refers to the signal ratio); settings: CRE-bla HEK293T, beta-lactamase FRET ratio; at 92.4 µM (top of the series) unless noted
Summary of the method: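 Stimulation used NKH477 at a final 0.25 uM for 3 h in compound-treated CRE-bla HEK293T cells, seeded 18 h beforehand. Reporter activity was measured with LiveBLAzer B/G FRET substrate after 2 h at room temperature.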

[15] = biological target: Beta-2 adrenergic receptor (Homo sapiens) (UniProt P07550); assay: Adrenergic beta2 receptor (ADRB2) small molecule antagonists, cell-based qHTS assay (AID 1963592); settings: CHO-ADRB2 cells, isoproterenol-stimulated cAMP HTRF ratio, 0.5 h; at 92.4 µM (top of the series) unless noted; also: nearly all actives have a fitted effect of over 50% in size
Summary of the method: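 Assay format: CHO-ADRB2 cells, 18-20hr seeding at 37C/5% CO2, then compound plus 1nM isoproterenol agonist mix for 0.5hr RT. Homogeneous time-resolved fluorescence cAMP detection after 1hr, expressed as 665/615 nm ratio.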

[16] = biological target: Beta-2 adrenergic receptor (Homo sapiens) (UniProt P07550); assay: Adrenergic beta2 receptor (ADRB2) small molecule agonists, cell-based qHTS assay (AID 1963593); settings: CHO-ADRB2 cells, cAMP HTRF, 30 min; at 92.4 µM (top of the series) unless noted;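 also: CHO cells stably overexpressing human ADRB2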
Summary of the method: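 CHO cells stably over-expressing ADRB2 were plated overnight at 37C, then dosed with compounds plus a stimulation mix containing 100uM IBMX and 25uM Ro-20-1724 for 0.5hr at room temperature. cAMP was measured by HTRF competition, 1hr.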

[17] = biological target: D(2) dopamine receptor (Homo sapiens) (UniProt P14416); assay: Dopamine D2 receptor (DRD2) small molecule agonists, cell-based qHTS assay (AID 1963594); settings: HEK293-DRD2 cAMP HTRF, agonist mode, 30 min; at 92.4 µM (top of the series) unless noted; also: nearly all actives have a fitted effect of over 35% in size
Summary of the method: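 HEK293 cells stably expressing DRD2 were cultured 24 h at 37 C, then given Ro20-1724 (0.1 mM final) and compounds for 10 min at room temperature. NKH477 (200nM) was then added for 30 min. cAMP was read by HTRF.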

[18] = biological target: D(2) dopamine receptor (Homo sapiens) (UniProt P14416); assay: Dopamine D2 receptor (DRD2) small molecule antagonists, cell-based qHTS assay (AID 1963595; active = well fitted inhibition curve with a large enough effect in the signal ratio in the repeat runs, with a control signal flat; the % refers to the signal ratio); settings: HEK293-DRD2 cAMP HTRF antagonist mode; at 92.4 µM (top of the series) unless noted
Summary of the method: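 HTRF cAMP read-out at 665 and 620 nm emission (340 nm excitation). Antagonist mode: compounds were tested against 12 nM quinpirole in DRD2-HEK293 cells, with 200 nM NKH477 raising cAMP and 0.1 mM Ro20-1724 blocking its breakdown.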
% is scaled to controls: 0 for no effect and ±100 for the full control effect.

CC(C)OP(OC(C)C)OC(C)C
inactive: activity change, negative = cytotoxicity [1] 2.66% | activity change [2] 0.0414% | activation [3] 0.17% | activation [4] 0.165% | activation [5] 7.18% | activity change, negative = cytotoxicity [6] 1.08% | activity change, negative = cytotoxicity [7] 0.87% | activity change, negative = cytotoxicity [8] 19.6% | activation [9] 7.9% | activation [10] -0.762% | activity, negative = inhibition [11] 33.3% | activation [12] 0.13% | activation [13] -1.45% | activity change, negative = inhibition [14] -0.811% | activity change, negative = inhibition [15] 5.79% | activation [16] -2.83% | activation [17] 1.68% | activity change, negative = inhibition [18] -6.96%
